Measured values published in patent US7141603B2, “Antitumor agents” (The Regents of The University California, priority 1999, dated 2006).

Tests used:
[1] = Tolerated dose / toxicity on administration; details: in vivo
Excerpt: As one skilled in the art would recognize, the amount can be varied depending on the method of administration.

[2] = system: MV522 lung carcinoma xenograft; assay: Test B in vivo MV522 lung carcinoma xenograft; details: daily IP for 5 consecutive days, MV522 xenograft mice
Excerpt: Several representative compounds of the invention were chosen for in vivo studies. […] Drug therapy was started 10 days after inoculation on a daily basis via IP route for 5 consecutive days. The animals were monitored for 3 weeks after start of therapy.
BALB/c nu/nu 4-week old female mice weighing 18–22 g were obtained from Simonsen, Inc. (Gilroy, Calif.) and maintained in the athymic mouse colony of the University of California (San Diego, Calif.) under pathogen free conditions using HEPA filter hoods. Animals were provided with sterilized food and water ad libitum in groups of 5 in plastic cages vented with polyester fiber filter covers. […]
Each animal was earmarked and followed individually throughout the experiments. […] The effect of the compound on life span was calculated from median survival.
Although MV522 cells kill mice by metastases, primary s.c. tumor growth over the shoulder was monitored starting on the first day of treatment and at weekly intervals thereafter. Tumor size was measured in two perpendicular diameters. […] Relative weights (RW) were calculated to standardized variability in tumor size among test groups at initiation of treatment using the formula RW=Wt/wi, where Wi is the tumor weight for a given animal at beginning of drug treatment and Wt is tumor weight at a subsequent time. […]

Substance	maximum tolerated dose [1]	MTD reached in Test B [2]
Illudin S [reference compound]	about 250 ug/kg	–
mitomycin C [reference compound]	–	reached
